Experimental findings from US4608390A, “Lipoxygenase inhibiting compounds” (Abbott Laboratories, priority 1985, dated 1986) are described below.

The test concerns the target T1, 5-lipoxygenase (Rattus norvegicus, UniProt P12527).
T1 construct: 20,000×G supernatant from 7.5×10^6 homogenized RBL-1 cells; endogenous in cells; host or cells: RBL-1 cells (20,000xG supernatant of homogenate)
T1 sequence (P12527 1-673): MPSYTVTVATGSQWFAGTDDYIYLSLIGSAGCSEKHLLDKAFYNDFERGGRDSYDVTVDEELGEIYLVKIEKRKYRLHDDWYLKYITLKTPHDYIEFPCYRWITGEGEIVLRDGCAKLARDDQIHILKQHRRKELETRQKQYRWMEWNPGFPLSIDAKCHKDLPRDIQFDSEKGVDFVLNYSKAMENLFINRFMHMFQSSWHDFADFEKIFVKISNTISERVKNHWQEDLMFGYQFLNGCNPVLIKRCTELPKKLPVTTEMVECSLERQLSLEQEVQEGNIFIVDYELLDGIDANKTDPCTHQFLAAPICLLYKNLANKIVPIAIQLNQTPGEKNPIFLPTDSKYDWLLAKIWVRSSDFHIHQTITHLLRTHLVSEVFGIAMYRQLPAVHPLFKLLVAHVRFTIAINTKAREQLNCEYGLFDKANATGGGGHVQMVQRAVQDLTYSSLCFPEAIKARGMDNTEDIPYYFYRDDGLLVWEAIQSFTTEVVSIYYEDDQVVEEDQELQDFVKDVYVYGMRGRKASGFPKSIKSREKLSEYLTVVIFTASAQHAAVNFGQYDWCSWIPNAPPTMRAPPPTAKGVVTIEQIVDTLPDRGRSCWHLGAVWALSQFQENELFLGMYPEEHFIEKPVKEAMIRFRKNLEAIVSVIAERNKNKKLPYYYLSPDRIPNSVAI
As to the kind of experiment: 5-Lipoxygenase IC50 determination (20,000×G supernatant of homogenized RBL-1 cells, radiolabeled arachidonic acid). It is filed as biochemical. To be noted: RBL-1 cell 20,000×G supernatant. How it is done:
Reactions were initiated by the addition of radiolabeled arachidonic acid and terminated by acidification and ether extraction. Reaction products were separated from nonconverted substrate by thin layer chromatography and measured by liquid scintillatiton spectroscopy. Inhibition of 5-lipoxygenase activity was calculated as the ratio of the amounts of product formed in the presence and absence of inhibitor. […]

Structures are written as SMILES.

As to `CN(O)C(=O)C=Cc1cc2ccccc2cc1[N+](=O)[O-]` [Example 13, N-methyl-3-(3-nitro-2-naphthyl)acrylohydroxamic acid], the IC50 is 300 nM. This counts as sub-micromolar.

`CN(O)C(=O)C(=Cc1ccc2ccccc2c1)c1ccc(Br)cc1` [Example 11, N-methyl-3-(2-naphthyl)-2-(4-bromophenyl)acrylohydroxamic acid] returned a half-maximal inhibitory concentration (IC50) of 1800 nM. Compared with the last compound, the IC50 is about 6-fold higher.

The term IC50 denotes the concentration needed to halve the response being measured. Read a high IC50 as weaker potency in that assay.
